Experiments:
[1] = test system: human erythroid burst-forming (BFU-E) progenitor cells; type: cell-based; conditions: human bone marrow clonogenic assay
Source text: (§1) In particular, anemia and neutropenia are the most common drug-related clinical toxicities associated with the anti-HIV drug zidovudine (ZDV).

[2] = test system: human granulocyte-macrophage colony-forming (CFU-GM) progenitor cells; type: cell-based; conditions: human bone marrow clonogenic assay
Source text: as §1

[3] = test system: HepG2 cells; test: Mitochondrial toxicity assay in HepG2 cells; type: cell-based, human; conditions: L-dC treated hepatocytes; read-out: IC50, lactic acid accumulation / mitochondrial changes

Measured: IC50

Nc1ccn([C@@H]2C[C@@H](O)[C@H](CO)O2)c(=O)n1 [L-dC, 2′-deoxy-β-L-cytidine]
> 10 µM: all assays above
